Screening data deposited in PubChem BioAssay by Broad Institute.
Only some compounds are listed: those with a hit (about 1.8% of all), similar ones and a draw of the others.
E-sel inducer – E-selectin induction in HUVECs, primary screen, imaging, HUVEC, immunofluorescence imaging, single point. AID 686992, 2013. P16581. normalized: neutral wells 0, TNF-alpha wells 100. activation, % at 7.58 µM. 0.37% of 260,000 active;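 active means mean E-selectin-positive cell signal at least 10% of the positive control, reached in at least 60% of replicates, without over 20% cell loss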
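material = human umbilical vein endothelial cells (HUVEC), E-selectin induction | quantity = 3,000 cells/well | medium = EGM-2 growth medium on 0.1% gelatin-coated wells | technique = immunofluorescence imaging | read-out basis = % PE-positive cells | control set = TNF-alpha positive control, DMSO neutral control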
RAD54 branch – inhibitors of human RAD54 branch migration, primary screen, biochemical, fluorescence, single point; RAD54 Holliday junction branch migration, FAM/BHQ fluorescence; DNA repair and recombination protein RAD54-like (Homo sapiens), Q92698; inhibition, % at 10.4 µM; 0.14% of 360,000 active;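 active means mean normalized replicate activity at least 40 and at least half of replicates scoring 40 or more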;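 further: inhibitors cause a drop in the FAM fluorescence signal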
AF4-AF9 inh – inhibitors of AF4 peptide binding to AF9, primary screen, biochemical, AlphaScreen, biotin-AF4 peptide, FLAG-AF9, single point; inhibition, % at 10 µM; 0.47% of 350,000 active; AID 651704, 2012;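 active means every replicate reaching a set inhibition limit, whatever the replicate mean, cut at about 25% in these data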
Yeast UUG start – yeast start codon fidelity modulation; activity score, % at 18.7 µM; actives 0.13% (n = 350,000); S. cerevisiae UUG-firefly luciferase reporter, luminescence/redox ratio; AID 602363;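 active means replicate mean at a twofold rise or more, about +100% in these data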;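 further: firefly luciferase made from a UUG start codon reports start codon fidelity; reporter light over untreated wells divided by growth signal over untreated wells; some hits fall short of that in this replicate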
RAD52 inh – RAD52 DNA annealing inhibitors, primary screen, biochemical, FRET, single point, set 2. AID 651710, 2012. inhibition, % at 18.7 µM. recombinant RAD52 DNA annealing, FRET fluorescence. 0.46% of 360,000 active;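 active means every replicate showing at least 50% inhibition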
SIRT5 block – SIRT5 desuccinylase inhibitors, primary screen, biochemical, fluorescence imaging, single point, set 5; Purified SirT5, succinyl-peptide AMC, trypsin-coupled fluorescence; inhibition, % at 15 µM; AID 652115, 2013; 1.1% of 330,000 active; in the data active means inhibition above about 15%
Large screens that a line does not name were inactive; ! = repeats disagree.

Chains of the proteins cited; added tags and fusions are not shown.
DNA repair and recombination protein RAD54-like (Homo sapiens), Q92698, UniProt Q92698, whole entry, looked up: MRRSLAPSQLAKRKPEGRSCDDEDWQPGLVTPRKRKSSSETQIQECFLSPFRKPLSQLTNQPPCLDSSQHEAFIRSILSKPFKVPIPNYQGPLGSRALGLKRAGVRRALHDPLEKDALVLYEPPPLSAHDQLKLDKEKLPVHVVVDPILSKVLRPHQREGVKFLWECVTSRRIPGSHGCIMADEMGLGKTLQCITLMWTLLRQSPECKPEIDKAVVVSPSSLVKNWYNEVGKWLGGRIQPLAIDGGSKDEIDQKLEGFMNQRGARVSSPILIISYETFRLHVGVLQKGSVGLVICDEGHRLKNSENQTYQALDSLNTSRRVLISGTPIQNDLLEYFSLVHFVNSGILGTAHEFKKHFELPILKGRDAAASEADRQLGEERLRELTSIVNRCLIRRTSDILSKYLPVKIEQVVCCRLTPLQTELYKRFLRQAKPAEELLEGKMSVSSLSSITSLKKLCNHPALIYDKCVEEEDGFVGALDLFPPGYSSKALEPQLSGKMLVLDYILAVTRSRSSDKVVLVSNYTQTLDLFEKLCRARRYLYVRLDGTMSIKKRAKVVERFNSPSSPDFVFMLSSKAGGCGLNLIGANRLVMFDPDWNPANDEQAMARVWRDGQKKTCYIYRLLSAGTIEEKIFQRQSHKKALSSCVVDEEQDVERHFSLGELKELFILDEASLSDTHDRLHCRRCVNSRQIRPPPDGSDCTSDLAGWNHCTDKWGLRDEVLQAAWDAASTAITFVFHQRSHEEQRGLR

C[C@@H]1CN([C@H](C)CO)C(=O)c2cccc(NS(C)(=O)=O)c2O[C@@H]1CN(C)CC1CCCCC1	SIRT5 block 18.1
C[C@@H]1CN([C@H](C)CO)C(=O)c2cccc(NS(C)(=O)=O)c2O[C@H]1CN(C)CC1CCCCC1	none
C[C@@H]1CN([C@@H](C)CO)C(=O)c2cccc(NS(=O)(=O)c3ccc(F)cc3)c2O[C@H]1CN(C)Cc1ccc(C(=O)O)cc1	E-sel inducer 65.6
C[C@H](CO)N1C[C@H](C)[C@@H](CN(C)C(=O)CCC(F)(F)F)OCCCC[C@H](C)Oc2ccc(NC(=O)Nc3ccccc3)cc2C1=O	none
COc1ccc(CN(C)C[C@H]2OCCCC[C@H](C)Oc3ccc(NS(=O)(=O)c4ccc(Cl)cc4)cc3C(=O)N([C@H](C)CO)C[C@@H]2C)cc1	none (no result: E-sel inducer)
COc1ccc(CN(C)C[C@@H]2OCCCC[C@H](C)Oc3ccc(NS(=O)(=O)c4ccc(Cl)cc4)cc3C(=O)N([C@H](C)CO)C[C@H]2C)cc1	RAD52 inh 57.5 (no result: E-sel inducer)
COc1ccc(CN(C)C[C@H]2OCCCC[C@@H](C)Oc3ccc(NS(=O)(=O)c4ccc(Cl)cc4)cc3C(=O)N([C@H](C)CO)C[C@H]2C)cc1	RAD52 inh 54.8 (no result: E-sel inducer)
COc1ccc(CN(C)C[C@H]2OCCCC[C@@H](C)Oc3ccc(NS(=O)(=O)c4ccc(Cl)cc4)cc3C(=O)N([C@@H](C)CO)C[C@H]2C)cc1	RAD52 inh 54.7 (no result: E-sel inducer)
COCCNC(=O)C[C@H]1CC[C@@H]2[C@H](COC[C@@H](O)CN2C(=O)Nc2ccc3c(c2)OCO3)O1	none
C[C@H](CO)N1C[C@H](C)[C@H](CN(C)CC2CCCCC2)Oc2c(NC(=O)C3CC3)cccc2C1=O	none
CO[C@H]1CN(C)C(=O)c2cc(C#N)ccc2OCC[C@@H]2CC[C@H](OC)[C@@H](CN(C)C(=O)[C@H]1C)O2	none (no result: Yeast UUG start)
Cc1oc2ccc(NS(=O)(=O)c3ccccc3)cc2c1C(=O)Nc1ccccc1	SIRT5 block 20.7 (no result: E-sel inducer, RAD54 branch, Yeast UUG start)
COCCOC(=O)c1c(C)oc2ccc(NS(=O)(=O)c3ccccc3)cc12	none (no result: E-sel inducer)
COc1cc([N+](=O)[O-])c(OC)cc1Nc1ccccc1C(=O)O	none (no result: RAD54 branch, Yeast UUG start, SIRT5 block)
COc1cc(-c2ccc(Nc3ccccc3C(=O)O)c(OC)c2)ccc1Nc1ccccc1C(=O)O	SIRT5 block 30.2
COc1ccc(NC(=O)CCSc2nnnn2C)cc1	SIRT5 block 17.8
C[C@H](CO)N1C[C@H](C)[C@@H](CN(C)Cc2ccccn2)Oc2ncc(Br)cc2C1=O	SIRT5 block 25.0!
CC(C)C#Cc1cnc2c(c1)C(=O)N([C@@H](C)CO)C[C@@H](C)[C@H](CN(C)Cc1ccccn1)O2	SIRT5 block 21.1 (no result: RAD54 branch, Yeast UUG start)
CNC[C@H]1Oc2ccc(NC(=O)NC(C)C)cc2CC(=O)N([C@H](C)CO)C[C@H]1C	none (no result: E-sel inducer)
Cc1ccccc1S(=O)(=O)N1CCCCN2[C@@H](CO)[C@@H](c3ccc(-c4ccccc4)cc3)[C@@H]2C1	none (no result: E-sel inducer)
Cc1ccccc1-c1ccc([C@H]2[C@@H](CO)N3CCCCN(S(=O)(=O)Cc4ccccc4)C[C@H]23)cc1	RAD52 inh 68.5
CCS(=O)(=O)N1CCCCN2[C@H](C1)[C@@H](c1ccc(-c3ccccc3)cc1)[C@@H]2CO	SIRT5 block 15.8
Cc1ccccc1S(=O)(=O)N1CCCCN2[C@H](CO)[C@H](c3ccc(-c4ccccc4)cc3)[C@H]2C1	RAD52 inh 73.0, SIRT5 block 17.4 (no result: E-sel inducer)
Cc1cccc(-c2ccc([C@H]3[C@H]4CN(S(=O)(=O)c5ccccc5C)CCCCN4[C@H]3CO)cc2)c1	none
Cc1ccccc1-c1ccc([C@H]2[C@H]3CN(S(=O)(=O)Cc4ccccc4)CCCCN3[C@H]2CO)cc1	none
Cc1ccccc1S(=O)(=O)N1CCCCN2[C@H](CO)[C@@H](c3ccc(-c4ccccc4)cc3)[C@H]2C1	RAD52 inh 69.7, SIRT5 block 18.9 (no result: E-sel inducer)
C[C@H](CO)N1C[C@H](C)[C@@H](CN(C)C(=O)Nc2ccc3c(c2)OCO3)Oc2ccc(NC(=O)Nc3cccc4ccccc34)cc2CC1=O	none
C[C@@H]1CN([C@H](C)CO)C(=O)Cc2cc(NS(=O)(=O)c3cn(C)cn3)ccc2O[C@H]1CN(C)C	none
O=C(C[C@H]1CC[C@H](NC(=O)Nc2ccc(C(F)(F)F)cc2)[C@H](CO)O1)NCc1cc(F)cc(F)c1	none (no result: Yeast UUG start)
CCN(CC(=O)Nc1ccccc1OC)CC(=O)Nc1sccc1C#N	SIRT5 block 15.4
Cc1noc(C)c1S(=O)(=O)Nc1ccc2c(c1)C(=O)N([C@@H](C)CO)C[C@@H](C)[C@@H](CN(C)Cc1ccc3c(c1)OCO3)O2	E-sel inducer 33.0
Cc1noc(C)c1S(=O)(=O)Nc1ccc2c(c1)C(=O)N([C@H](C)CO)C[C@@H](C)[C@H](CN(C)Cc1ccc(Cl)c(Cl)c1)OCCCC[C@@H](C)O2	SIRT5 block 17.0
Cc1noc(C)c1S(=O)(=O)Nc1ccc2c(c1)C(=O)N([C@@H](C)CO)C[C@@H](C)[C@H](CN(C)Cc1ccc3c(c1)OCO3)O2	none (no result: RAD54 branch, AF4-AF9 inh, Yeast UUG start, RAD52 inh, SIRT5 block)
Cc1noc(C)c1S(=O)(=O)Nc1ccc2c(c1)C(=O)N([C@H](C)CO)C[C@H](C)[C@@H](CN(C)Cc1ccc(Cl)c(Cl)c1)OCCCC[C@H](C)O2	SIRT5 block 15.5 (no result: RAD54 branch, Yeast UUG start)
CCNC(=O)C[C@@H]1CC[C@@H](NC(=O)C2CC2)[C@H](CO)O1	none
Cc1noc(C)c1NC(=O)Nc1ccc2c(c1)C(=O)N([C@H](C)CO)C[C@@H](C)[C@H](CN(C)Cc1ccc(C(F)(F)F)cc1)OCCCC[C@@H](C)O2	none
O=C(C[C@@H]1C=C[C@H](NC(=O)C2CCC2)[C@@H](CO)O1)NCc1ccncc1	none
COC(=O)c1ccc(N2C(=O)CC(SCC(=O)Nc3ccc(OC)cc3)C2=O)cc1 (stereo unspecified)	E-sel inducer 57.9 (no result: RAD54 branch, Yeast UUG start)
Cc1noc(C)c1NC(=O)N(C)C[C@@H]1Oc2ccc(NC(=O)NC(C)C)cc2C(=O)N([C@@H](C)CO)C[C@H]1C	none
O=c1ccc(-c2ccccc2)n[nH]1	SIRT5 block 21.2 (no result: E-sel inducer)
COc1ccc(C(=O)NCC(=O)OCc2ccccc2F)cc1	SIRT5 block 31.8
C[C@H]1CN([C@@H](C)CO)C(=O)CCCn2cc(nn2)CO[C@H]1CN(C)Cc1ccc2c(c1)OCO2	none (no result: RAD54 branch, AF4-AF9 inh, Yeast UUG start, RAD52 inh, SIRT5 block)
COc1ccc(CN(C)C(C)C(=O)Nc2ccc(S(=O)(=O)N3CCOCC3)cc2)c(OC)c1 (stereo unspecified)	SIRT5 block 17.1 (no result: RAD54 branch, Yeast UUG start)
COc1cccc(NC(=O)CN(C)C(C)C(=O)Nc2ccc(S(=O)(=O)N3CCOCC3)cc2)c1 (stereo unspecified)	none (no result: E-sel inducer)
